Values of other authors in paper PMC12332667, “Role of Structural Modifications in Peptidomimetic Compounds as Potential Antimicrobial Agents against Staphylococcus aureus and Streptococcus pyogenes: Balancing Bioavailability, Safety, and Antimicrobial Activity” (ACS Omega, 2025).

Parameters: method as in PMID 10517933
Details: uninflamed organism; reference number not given, probably ref 82; cited from earlier work

Substance: penicillin
- penetration (BBB): 1%
